Results reported in ChEMBL document CHEMBL3885861, “Open TG-GATES”.

Columns and labels:
Rattus norvegicus [1] = species: Rattus norvegicus; assay: Open TG-GATES - Regimen: Single; assay type: toxicity, organism-based, Sprague-Dawley; set-up: regimen Single, gender Male, age 6 weeks; details: in vivo, po, route gavage
Rattus norvegicus [2] = species: Rattus norvegicus; assay: Open TG-GATES - Regimen: Daily Repeat; assay type: toxicity, organism-based, Sprague-Dawley; set-up: regimen Daily Repeat, gender Male, age 6 weeks; details: in vivo, po, route gavage; for LIVER: tissue Liver
[3] = 0 mg/kg, 3 h, tissue Plasma, dose level Control
[4] = 0 mg/kg, 6 h, tissue Blood, dose level Control
[5] = 0 mg/kg, 6 h, tissue Plasma, dose level Control
[6] = 0 mg/kg, 9 h, tissue Blood, dose level Control
[7] = 0 mg/kg, 9 h, tissue Plasma, dose level Control
[8] = 0 mg/kg, 24 h, tissue Plasma, dose level Control
[9] = 6 mg/kg, 3 h, tissue Plasma, dose level Low
[10] = 6 mg/kg, 6 h, tissue Plasma, dose level Low
[11] = 6 mg/kg, 9 h, tissue Plasma, dose level Low
[12] = 6 mg/kg, 24 h, tissue Plasma, dose level Low
[13] = 20 mg/kg, 3 h, tissue Plasma, dose level Middle
[14] = 20 mg/kg, 6 h, tissue Plasma, dose level Middle
[15] = 20 mg/kg, 9 h, tissue Plasma, dose level Middle
[16] = 20 mg/kg, 24 h, tissue Plasma, dose level Middle
[17] = 60 mg/kg, 3 h, tissue Plasma, dose level High
[18] = 60 mg/kg, 6 h, tissue Plasma, dose level High
[19] = 60 mg/kg, 9 h, tissue Plasma, dose level High
[20] = 60 mg/kg, 24 h, tissue Plasma, dose level High
[21] = 30 mg/kg, 6 h, tissue Plasma, dose level Middle
[22] = 30 mg/kg, 24 h, tissue Blood, dose level Middle
[23] = 0 mg/kg, […], tissue Plasma, dose level Control, time 14 day
[24] = 1 mg/kg, 72 h, tissue Blood, dose level Low, time 3 day
[25] = 1 mg/kg, […], tissue Blood, dose level Low, time 14 day
[26] = 1 mg/kg, […], tissue Plasma, dose level Low, time 28 day
[27] = 3 mg/kg, […], tissue Plasma, dose level Middle, time 28 day

CC/C(=C(\c1ccccc1)c1ccc(OCCN(C)C)cc1)c1ccccc1 [TAMOXIFEN]
ALP (Rattus norvegicus [1]; [3]): 1623.6 IU/L
Ca (Rattus norvegicus [1]; [3]): 11.1 mg/dL
PL (Rattus norvegicus [1]; [3]): 162.2 mg/dL
Ret (Rattus norvegicus [1]; [4]): 9.2%
ALP (Rattus norvegicus [1]; [5]): 1734.2 IU/L
Ca (Rattus norvegicus [1]; [5]): 10.8 mg/dL
PL (Rattus norvegicus [1]; [5]): 144.2 mg/dL
Ret (Rattus norvegicus [1]; [6]): 9.8%
Ca (Rattus norvegicus [1]; [7]): 10.5 mg/dL
PL (Rattus norvegicus [1]; [7]): 140.8 mg/dL
ALP (Rattus norvegicus [1]; [8]): 1627.6 IU/L
Ca (Rattus norvegicus [1]; [8]): 11 mg/dL
ALP (Rattus norvegicus [1]; [9]): 1574.2 IU/L
Ca (Rattus norvegicus [1]; [9]): 11.2 mg/dL
PL (Rattus norvegicus [1]; [9]): 157.8 mg/dL
Ret (Rattus norvegicus [1]; 6 mg/kg, 6 h, tissue Blood, dose level Low): 10%
ALP (Rattus norvegicus [1]; [10]): 1443.6 IU/L
Ca (Rattus norvegicus [1]; [10]): 10.9 mg/dL
PL (Rattus norvegicus [1]; [10]): 135.2 mg/dL
ALP (Rattus norvegicus [1]; [11]): 1512.4 IU/L
PL (Rattus norvegicus [1]; [11]): 118 mg/dL
Ret (Rattus norvegicus [1]; 6 mg/kg, 24 h, tissue Blood, dose level Low): 8.5%
ALP (Rattus norvegicus [1]; [12]): 1778.4 IU/L
Ca (Rattus norvegicus [1]; [12]): 11 mg/dL
PL (Rattus norvegicus [1]; [12]): 118 mg/dL
Ret (Rattus norvegicus [1]; 20 mg/kg, 3 h, tissue Blood, dose level Middle): 10.2%
ALP (Rattus norvegicus [1]; [13]): 1976.4 IU/L
Ca (Rattus norvegicus [1]; [13]): 11.1 mg/dL
PL (Rattus norvegicus [1]; [13]): 168.8 mg/dL
Ret (Rattus norvegicus [1]; 20 mg/kg, 6 h, tissue Blood, dose level Middle): 10%
ALP (Rattus norvegicus [1]; [14]): 1509.6 IU/L
Ca (Rattus norvegicus [1]; [14]): 10.5 mg/dL
PL (Rattus norvegicus [1]; [14]): 137.8 mg/dL
Ret (Rattus norvegicus [1]; 20 mg/kg, 9 h, tissue Blood, dose level Middle): 10%
ALP (Rattus norvegicus [1]; [15]): 1531.4 IU/L
PL (Rattus norvegicus [1]; [15]): 108.4 mg/dL
Ret (Rattus norvegicus [1]; 20 mg/kg, 24 h, tissue Blood, dose level Middle): 9.7%
ALP (Rattus norvegicus [1]; [16]): 1751.4 IU/L
Ca (Rattus norvegicus [1]; [16]): 10.9 mg/dL
PL (Rattus norvegicus [1]; [16]): 117.4 mg/dL
ALP (Rattus norvegicus [1]; [17]): 1502.2 IU/L
Ca (Rattus norvegicus [1]; [17]): 11 mg/dL
PL (Rattus norvegicus [1]; [17]): 153.2 mg/dL
ALP (Rattus norvegicus [1]; [18]): 1465.4 IU/L
Ca (Rattus norvegicus [1]; [18]): 10.5 mg/dL
PL (Rattus norvegicus [1]; [18]): 136.2 mg/dL
Ret (Rattus norvegicus [1]; 60 mg/kg, 9 h, tissue Blood, dose level High): 10.4%
ALP (Rattus norvegicus [1]; [19]): 1543 IU/L
Ca (Rattus norvegicus [1]; [19]): 10.4 mg/dL
PL (Rattus norvegicus [1]; [19]): 140.2 mg/dL
Ret (Rattus norvegicus [1]; 60 mg/kg, 24 h, tissue Blood, dose level High): 8.9%
ALP (Rattus norvegicus [1]; [20]): 1941.4 IU/L
Ca (Rattus norvegicus [1]; [20]): 10.9 mg/dL

CN(C)CCCN1c2ccccc2CCc2ccc(Cl)cc21 [CLOMIPRAMINE]
RBC (Rattus norvegicus [1]; 0 mg/kg, 3 h, tissue Blood, dose level Control): 644.8 x10_4/ul
Ca (Rattus norvegicus [1]; [3]): 10.6 mg/dL
Cl (Rattus norvegicus [1]; [3]): 105 meq/L
RBC (Rattus norvegicus [1]; [4]): 650.2 x10_4/ul
Cl (Rattus norvegicus [1]; [5]): 103.6 meq/L
RBC (Rattus norvegicus [1]; [6]): 636.8 x10_4/ul
Ca (Rattus norvegicus [1]; [7]): 10.6 mg/dL
Cl (Rattus norvegicus [1]; [7]): 105.4 meq/L
RBC (Rattus norvegicus [1]; 0 mg/kg, 24 h, tissue Blood, dose level Control): 655.6 x10_4/ul
Cl (Rattus norvegicus [1]; [8]): 103 meq/L
TG (Rattus norvegicus [1]; [8]): 126.2 mg/dL
RBC (Rattus norvegicus [1]; 10 mg/kg, 3 h, tissue Blood, dose level Low): 677.4 x10_4/ul
Cl (Rattus norvegicus [1]; 10 mg/kg, 3 h, tissue Plasma, dose level Low): 104.4 meq/L
RBC (Rattus norvegicus [1]; 10 mg/kg, 6 h, tissue Blood, dose level Low): 667.2 x10_4/ul
Cl (Rattus norvegicus [1]; 10 mg/kg, 6 h, tissue Plasma, dose level Low): 104.8 meq/L
RBC (Rattus norvegicus [1]; 10 mg/kg, 9 h, tissue Blood, dose level Low): 645.6 x10_4/ul
Cl (Rattus norvegicus [1]; 10 mg/kg, 9 h, tissue Plasma, dose level Low): 104.4 meq/L
RBC (Rattus norvegicus [1]; 10 mg/kg, 24 h, tissue Blood, dose level Low): 654.4 x10_4/ul
LIVER (Rattus norvegicus [1]; 10 mg/kg, 24 h, tissue Liver, dose level Low): 10.6 g
Cl (Rattus norvegicus [1]; 10 mg/kg, 24 h, tissue Plasma, dose level Low): 104 meq/L
Cl (Rattus norvegicus [1]; 30 mg/kg, 3 h, tissue Plasma, dose level Middle): 104.8 meq/L
RBC (Rattus norvegicus [1]; 30 mg/kg, 6 h, tissue Blood, dose level Middle): 698.2 x10_4/ul
Ca (Rattus norvegicus [1]; [21]): 10.6 mg/dL
Cl (Rattus norvegicus [1]; [21]): 104.8 meq/L
RBC (Rattus norvegicus [1]; 30 mg/kg, 9 h, tissue Blood, dose level Middle): 681.8 x10_4/ul
Cl (Rattus norvegicus [1]; 30 mg/kg, 9 h, tissue Plasma, dose level Middle): 104.6 meq/L
Hb (Rattus norvegicus [1]; [22]): 13.3 g/dL
RBC (Rattus norvegicus [1]; [22]): 645.2 x10_4/ul
Cl (Rattus norvegicus [1]; 30 mg/kg, 24 h, tissue Plasma, dose level Middle): 103.4 meq/L
RBC (Rattus norvegicus [1]; 100 mg/kg, 3 h, tissue Blood, dose level High): 668.8 x10_4/ul
Cl (Rattus norvegicus [1]; 100 mg/kg, 3 h, tissue Plasma, dose level High): 105 meq/L
RBC (Rattus norvegicus [1]; 100 mg/kg, 6 h, tissue Blood, dose level High): 663.8 x10_4/ul
RBC (Rattus norvegicus [1]; 100 mg/kg, 9 h, tissue Blood, dose level High): 669.6 x10_4/ul
Cl (Rattus norvegicus [1]; 100 mg/kg, 9 h, tissue Plasma, dose level High): 105 meq/L
RBC (Rattus norvegicus [1]; 100 mg/kg, 24 h, tissue Blood, dose level High): 684.2 x10_4/ul
Cl (Rattus norvegicus [1]; 100 mg/kg, 24 h, tissue Plasma, dose level High): 104.4 meq/L

O=C(O)Cc1ccccc1Nc1c(Cl)cccc1Cl [DICLOFENAC]
LIVER (Rattus norvegicus [2]; 0 mg/kg, 72 h, dose level Control, time 3 day): 11.7 g
Cl (Rattus norvegicus [2]; 0 mg/kg, 72 h, tissue Plasma, dose level Control, time 3 day): 102 meq/L
LIVER (Rattus norvegicus [2]; 0 mg/kg, […], dose level Control, time 14 day): 13.8 g
AST (Rattus norvegicus [2]; [23]): 59.8 IU/L
Ca (Rattus norvegicus [2]; [23]): 10.4 mg/dL
Cl (Rattus norvegicus [2]; [23]): 102.4 meq/L
Lym (Rattus norvegicus [2]; [24]): 79.4%
MCH (Rattus norvegicus [2]; [24]): 21.6 pg
MCHC (Rattus norvegicus [2]; [24]): 34.9%
ALT (Rattus norvegicus [2]; 1 mg/kg, 72 h, tissue Plasma, dose level Low, time 3 day): 40.8 IU/L
MCH (Rattus norvegicus [2]; [25]): 21.1 pg
MCV (Rattus norvegicus [2]; [25]): 59.1 fL
LIVER (Rattus norvegicus [2]; 1 mg/kg, […], dose level Low, time 14 day): 13.7 g
Ca (Rattus norvegicus [2]; [26]): 10.2 mg/dL
Cl (Rattus norvegicus [2]; [26]): 103 meq/L
TC (Rattus norvegicus [2]; [26]): 63.2 mg/dL
TG (Rattus norvegicus [2]; [26]): 128.8 mg/dL
MCV (Rattus norvegicus [2]; 3 mg/kg, 72 h, tissue Blood, dose level Middle, time 3 day): 62.1 fL
Cl (Rattus norvegicus [2]; 3 mg/kg, 72 h, tissue Plasma, dose level Middle, time 3 day): 103.2 meq/L
Lym (Rattus norvegicus [2]; 3 mg/kg, […], tissue Blood, dose level Middle, time 14 day): 81.6%
Neu (Rattus norvegicus [2]; 3 mg/kg, […], tissue Blood, dose level Middle, time 28 day): 12.4%
LIVER (Rattus norvegicus [2]; 3 mg/kg, […], dose level Middle, time 14 day): 13.4 g
Cl (Rattus norvegicus [2]; 3 mg/kg, […], tissue Plasma, dose level Middle, time 14 day): 102.6 meq/L
ALT (Rattus norvegicus [2]; [27]): 33.6 IU/L
TG (Rattus norvegicus [2]; [27]): 90.6 mg/dL
MCHC (Rattus norvegicus [2]; 10 mg/kg, 72 h, tissue Blood, dose level High, time 3 day): 34.8%
MCV (Rattus norvegicus [2]; 10 mg/kg, […], tissue Blood, dose level High, time 14 day): 63.6 fL
Ret (Rattus norvegicus [2]; 10 mg/kg, […], tissue Blood, dose level High, time 28 day): 12.3%
LIVER (Rattus norvegicus [2]; 10 mg/kg, […], dose level High, time 28 day): 13.7 g
Cl (Rattus norvegicus [2]; 10 mg/kg, […], tissue Plasma, dose level High, time 14 day): 103.6 meq/L
Ca (Rattus norvegicus [2]; 10 mg/kg, […], tissue Plasma, dose level High, time 28 day): 10.1 mg/dL
